Measurements: patent US12338243B2, “P2X7 modulators” (JANSSEN PHARMACEUTICA NV, priority 2014, dated 2025)

By UniProt entry, the sequences of proteins in these tests, tags left out. Where a name states a change or a piece, a line headed by the entry shows the natural chain unless it says otherwise.
UniProt Q99572: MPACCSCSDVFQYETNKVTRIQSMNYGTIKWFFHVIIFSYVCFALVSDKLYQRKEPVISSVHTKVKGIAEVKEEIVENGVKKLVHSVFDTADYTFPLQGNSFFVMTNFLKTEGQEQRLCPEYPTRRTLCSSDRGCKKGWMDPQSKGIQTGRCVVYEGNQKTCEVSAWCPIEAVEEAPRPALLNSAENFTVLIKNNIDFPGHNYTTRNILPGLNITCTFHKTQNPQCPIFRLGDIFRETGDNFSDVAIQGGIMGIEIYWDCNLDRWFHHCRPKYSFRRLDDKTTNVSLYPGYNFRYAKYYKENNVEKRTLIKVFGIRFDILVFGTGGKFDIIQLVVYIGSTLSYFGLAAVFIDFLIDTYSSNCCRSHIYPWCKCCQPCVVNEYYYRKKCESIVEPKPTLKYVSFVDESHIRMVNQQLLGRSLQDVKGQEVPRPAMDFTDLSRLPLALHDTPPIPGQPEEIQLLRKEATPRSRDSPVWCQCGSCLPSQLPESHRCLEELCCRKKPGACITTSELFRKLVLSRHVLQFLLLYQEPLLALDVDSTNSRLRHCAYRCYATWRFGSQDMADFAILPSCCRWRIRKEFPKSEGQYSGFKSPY

Tests used:
rat P2X7 = target: T1, rat P2X7 (Rattus norvegicus, UniProt Q64663); experiment: Ca2+ flux (FLIPR) in 1321N1 cells expressing recombinant rat P2X7 channel; settings: FLIPR (rat) IC50 (μM), 250 μM BzATP
T1 sequence (Q64663 1-595): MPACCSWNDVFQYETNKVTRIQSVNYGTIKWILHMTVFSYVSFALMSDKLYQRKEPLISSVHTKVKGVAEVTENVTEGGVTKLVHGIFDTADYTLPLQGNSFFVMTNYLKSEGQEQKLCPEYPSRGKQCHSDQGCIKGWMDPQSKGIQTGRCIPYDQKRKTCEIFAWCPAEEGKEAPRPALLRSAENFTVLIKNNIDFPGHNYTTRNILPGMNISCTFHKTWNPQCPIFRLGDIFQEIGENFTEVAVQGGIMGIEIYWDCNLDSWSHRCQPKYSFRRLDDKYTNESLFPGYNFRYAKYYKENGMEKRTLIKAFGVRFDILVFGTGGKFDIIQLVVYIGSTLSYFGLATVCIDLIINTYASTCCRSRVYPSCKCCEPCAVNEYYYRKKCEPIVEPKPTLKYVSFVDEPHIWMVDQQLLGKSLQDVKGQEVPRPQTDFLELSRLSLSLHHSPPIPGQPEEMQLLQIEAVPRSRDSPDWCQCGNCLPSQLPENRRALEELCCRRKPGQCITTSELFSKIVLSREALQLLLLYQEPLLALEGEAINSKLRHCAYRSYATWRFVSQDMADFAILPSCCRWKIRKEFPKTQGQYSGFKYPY

P2X7 = P2X7 (Homo sapiens, UniProt Q99572); experiment: Ca2+ flux (FLIPR) in 1321N1 cells expressing recombinant human P2X7 channel; settings: FLIPR (human) IC50 (μM), 250 μM BzATP

| IC50 (rat P2X7) [µM] | SMILES | IC50 (P2X7) [µM] |
| --- | --- | --- |
| 7.89 | CC1c2nnc(-c3ccc(F)cc3)n2CCN1C(=O)c1cccc(C(F)(F)F)c1Cl (centres unmarked) | – |
| – | C[C@H]1Cn2c(nnc2-c2ncc(F)cn2)CN1C(=O)c1cccc(C(F)(F)F)c1Cl [Example 74] | 0.0049 |
